The numbers were not newly measured in patent US7741435B2, “Substance P-saporin (SP-SAP) conjugates and methods of use thereof” (Advanced Targeting Systems, Inc., priority 1997, dated 2010), which cites them from elsewhere.

Protein sequences, listed by entry. Tags and fused reporters are not part of them.
UniProt P14600, whole entry: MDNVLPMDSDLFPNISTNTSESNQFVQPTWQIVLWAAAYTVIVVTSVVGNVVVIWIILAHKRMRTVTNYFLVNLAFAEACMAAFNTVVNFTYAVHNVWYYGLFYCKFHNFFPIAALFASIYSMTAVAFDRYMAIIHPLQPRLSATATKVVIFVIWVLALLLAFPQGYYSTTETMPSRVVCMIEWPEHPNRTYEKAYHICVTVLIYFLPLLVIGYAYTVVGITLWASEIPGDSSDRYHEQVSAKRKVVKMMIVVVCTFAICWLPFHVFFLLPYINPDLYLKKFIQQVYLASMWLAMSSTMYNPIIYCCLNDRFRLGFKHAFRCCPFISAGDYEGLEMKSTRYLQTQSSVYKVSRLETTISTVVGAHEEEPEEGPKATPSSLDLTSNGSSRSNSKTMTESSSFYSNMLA

In this series the target is rat NK-1R (Rattus norvegicus, UniProt P14600). The note with it: read-out: Kd of SP binding; KNRK cells transfected with rat NK-1R, approximately 80,000 receptors; cited from earlier work.

Usually Kd stands for the constant that tells how readily two partners part at equilibrium. As to RPKPQQFFGLM [SP, RPKPQQFFGLM-amide], the Kd was 6 nM.
